Literature values in patent publication US20060210614A1, “Method of treatment of a metabolic disease using intranasal administration of exendin peptide” (Nastech Pharmaceutical Company Inc., priority 2003, published 2006).

Conditions: intraduodenal, rats, with 1% (w/v) saline dispersion of polycarbophil; cited from earlier work

For “9-desglycinamide, 8-arginine vasopressin [DGAVP]”, the “Fold increase in bioavailability compared to aqueous solution without polymer” value is listed as 3-5 fold.
